From PubChem BioAssay AID2174 (The Scripps Research Institute Molecular Screening Center, 2009)
This is a selection; strong and weak results do not stand in their true shares. Activity calls are given as the source filed them.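 The calls were made as follows: active = inhibition above the mean of all tested compounds plus 3 SD, set per campaign (cut at about 14% in these data); inactive = the rest.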

Chains of the proteins cited; added tags and fusions are not shown. Lines headed by an entry give the natural chain unless they say otherwise; changes in a name come on top.
UniProt O75608: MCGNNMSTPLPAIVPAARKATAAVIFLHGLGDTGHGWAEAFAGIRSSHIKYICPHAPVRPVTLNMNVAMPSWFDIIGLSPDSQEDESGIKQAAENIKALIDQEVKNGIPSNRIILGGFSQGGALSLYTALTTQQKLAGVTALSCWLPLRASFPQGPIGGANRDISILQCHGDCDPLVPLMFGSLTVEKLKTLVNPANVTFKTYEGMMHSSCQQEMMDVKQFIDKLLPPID

What follows are molecules tested against Acyl-protein thioesterase 1 (Homo sapiens) (UniProt O75608) (assay: LYPLA1 inhibitors, primary screen, counter-screen for PME1 inhibitor project, biochemical, fluorescence polarization, FP-Rh probe ABPP (AID 2174;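 also: inhibitors block serine hydrolase probe labeling of LYPLA1 so polarization falls; 0% = enzyme with DMSO and 100% = wells lacking LYPLA1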)). Details: recombinant LYPLA1, FP-Rh probe fluorescence polarization; at 5.9 µM; active compounds read high.
In the case of Cc1cc(SC(NC(=O)c2ccccc2)C(Cl)(Cl)Cl)nc(C(C)C)n1 (stereo not given), the inhibition is reported as inactive: -3.76%.
For CCOC(=O)Nc1ccc([As](=O)(O)O)c(O)c1, the inhibition was inactive: -0.4%.
With Cc1cc(SC(NC=O)C(Cl)(Cl)Cl)ncn1 (stereo not given) the inhibition was inactive: -0.02%.
With O=P(Nc1ccccn1)(c1cccc2ccccc12)c1cccc2ccccc12 the inhibition was inactive: -2.08%.
For CCOC(=O)Nc1cccc([As](=O)(O)O)c1, the inhibition was inactive: 4.76%.
For O=C(Nc1ccncc1[N+](=O)[O-])c1ccc([N+](=O)[O-])cc1[N+](=O)[O-], the inhibition was inactive: 0.24%.
In the case of O=C(COc1ccccc1)OC1CN2CCC1CC2 (stereo not given), the inhibition is reported as inactive: -3.11%.
COP1(=S)c2c(C)nn(CCC#N)c2N=C(c2ccc(F)cc2)N1C (stereo not given) was tested, and the inhibition was inactive: -4.98%.
CCC(C)N(CC(C)C)C(=S)SC(NC(C)=O)C(Cl)(Cl)Cl (stereo not given) was tested, and the inhibition was inactive: 1.83%.
In the case of CCOC(=O)c1ccc(NC(=O)C(C)(CCl)SC)cc1 (stereo not given), the inhibition is reported as inactive: -2.51%.
For O=C(OC1CN2CCC1CC2)c1cccc([N+](=O)[O-])c1 (stereo not given), the inhibition was inactive: -0.34%.
COc1cc(I)ccc1[As](=O)(O)O was tested, and the inhibition was inactive: 0.57%.
With COc1ccc2nc(NP(=O)(c3ccccc3)c3ccccc3)sc2c1 the inhibition was inactive: -2.44%.
For Cc1cc(=O)[nH]c(N[N+](=O)[O-])n1, the inhibition was inactive: 3.73%.
O=C(OC1CN2CCC1CC2)C12CC3CC(CC(C3)C1)C2 (stereo not given) was tested, and the inhibition was inactive: 1.89%.
For Cc1c2c(nc3ccccc13)SC(C(Cl)Cl)C2 (stereo not given), the inhibition was inactive: -4.2%.
COc1ccc(N/C(=N/P(=O)(N2CCOCC2)N2CCOCC2)N2CCOCC2)cc1 was tested, and the inhibition was inactive: 1.58%.
In the case of Cc1ccc2nc3c(c(C)c2c1)CC(C(Cl)Cl)S3 (stereo not given), the inhibition is reported as inactive: -0.31%.
In the case of Cc1ccc(OP(=O)(Nc2ccc([N+](=O)[O-])cn2)Oc2ccc(C)cc2)cc1, the inhibition is reported as inactive: 2.85%.
In the case of COc1cc(C(=O)NCC2(N3CCOCC3)CCCCC2)ccc1OCC(C)C, the inhibition is reported as inactive: -0.65%.
In the case of O=[As](O)(c1ccc(O)cc1)c1ccccc1O, the inhibition is reported as inactive: -1.4%.
C[As](=O)(O)c1cccc(C(=O)O)c1 was tested, and the inhibition was inactive: 4.54%.
With O=[N+]([O-])c1cc([N+](=O)[O-])c(-c2ccn[nH]2)s1 the inhibition was inactive: -0.32%.
With CC(C)NC(=O)NP(=O)(Oc1ccccc1)Oc1ccccc1 the inhibition was inactive: 2.97%.
CCN(CC)C(=S)SC(NC=O)C(Cl)(Cl)Cl (stereo not given) was tested, and the inhibition was inactive: -0.56%.
For CC(C)c1ccc(OP(=O)(Nc2ccccn2)Oc2ccccc2F)cc1 (stereo not given), the inhibition was inactive: 1.31%.
ClCCSc1nnc(-c2cccnc2)o1 was tested, and the inhibition was inactive: 3.59%.
O=C(O)COc1ccc([As](=O)(O)O)cc1[N+](=O)[O-] was tested, and the inhibition was inactive: 5.06%.
Nc1ccccc1[As](=O)(O)c1ccccc1 was tested, and the inhibition was inactive: -2.45%.
With CS(=O)(=O)c1cc([N+](=O)[O-])c2no[n+]([O-])c2c1 the inhibition was inactive: -2.89%.
O=P(Nc1nccs1)(Oc1ccccc1)Oc1ccccc1 was tested, and the inhibition was inactive: -0.33%.
With O=P(Nc1nccs1)(c1ccccc1)c1nc2ccccc2s1 (stereo not given) the inhibition was inactive: -1.98%.
In the case of CCOP1(=S)c2c(C)nn(CCC#N)c2N=C(c2ccccc2F)N1C (stereo not given), the inhibition is reported as inactive: 1.64%.
For CN(C(=O)Cc1ccc(Cl)c(Cl)c1)[C@H]1CC[C@@]2(CCCO2)C[C@@H]1N1CCCC1, the inhibition was inactive: -2.36%.
O=[N+]([O-])c1ccc2c(c1)nnn2O was tested, and the inhibition was inactive: 2.13%.
In the case of CN(C)C(=O)c1cc([N+](=O)[O-])cc2c1-c1c(cc([N+](=O)[O-])cc1[N+](=O)[O-])C2=O, the inhibition is reported as active: 14.7%.
With CN(C(=O)Cc1ccccc1)[C@@H]1CC[C@]2(CCCO2)C[C@H]1N1CCCC1 the inhibition was inactive: 0.36%.
CCOP1(=S)c2c(C)nn(CCC#N)c2N=C(c2ccc(F)cc2)N1C (stereo not given) was tested, and the inhibition was inactive: -0.54%.
In the case of N#CCCN(C(=O)COC(=O)C(O)(c1ccccc1)c1ccccc1)c1ccc(F)cc1, the inhibition is reported as inactive: -0.8%.
In the case of NC(=O)Nc1ccc([As](=O)(O)O)cc1, the inhibition is reported as inactive: -0.27%.
In the case of Cc1cccc(OCC(=O)OC2CN3CCC2CC3)c1 (stereo not given), the inhibition is reported as inactive: 1.58%.
O=[As](O)(c1cccc(O)c1)c1cccc(O)c1 was tested, and the inhibition was inactive: 2.69%.
For CS(=O)(=O)c1ccc(Cl)c(NC(=O)COC(=O)C(O)(c2ccccc2)c2ccccc2)c1, the inhibition was inactive: -1.46%.
O=[As](O)(O)c1cccnc1 was tested, and the inhibition was inactive: 2.33%.
In the case of COc1cc(C(=O)NCC2(N3CCOCC3)CCCCC2)cc(Cl)c1OC(C)C, the inhibition is reported as inactive: -1.31%.
In the case of O=C(OC1CN2CCC1CC2)c1ccc(Cl)cc1 (stereo not given), the inhibition is reported as inactive: -0.08%.
For CCOP(=O)(Nc1cccc2ccccc12)OCC, the inhibition was inactive: -0.79%.
COc1cc(C2NCCC3(OCCO3)C2(C)C)cc(OC)c1OC (stereo not given) was tested, and the inhibition was inactive: 3.27%.
In the case of CCCOP(=S)(Nc1nc(N)cc(=O)[nH]1)OCCC, the inhibition is reported as inactive: -2.64%.
For Nc1cccc2c([As](=O)(O)O)cccc12, the inhibition was active: 18.6%.
